Results published in patent US20250042974A1, “LIPID MEDIATOR CHAPERONE AND USES THEREOF” (The Children's Medical Center Corporation, priority 2021, published 2025).

Amino acid sequences for entries named in this document (tags omitted).
UniProt P21453, whole entry, species assumed: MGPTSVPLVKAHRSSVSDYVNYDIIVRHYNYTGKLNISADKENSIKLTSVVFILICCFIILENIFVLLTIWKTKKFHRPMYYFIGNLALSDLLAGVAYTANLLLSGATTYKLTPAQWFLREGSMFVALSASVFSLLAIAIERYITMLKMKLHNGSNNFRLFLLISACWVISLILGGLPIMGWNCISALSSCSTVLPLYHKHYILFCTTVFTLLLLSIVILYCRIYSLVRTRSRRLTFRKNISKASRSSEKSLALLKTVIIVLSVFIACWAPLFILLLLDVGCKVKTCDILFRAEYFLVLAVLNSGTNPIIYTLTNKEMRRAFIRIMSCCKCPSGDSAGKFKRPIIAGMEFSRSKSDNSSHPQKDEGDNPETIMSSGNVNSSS
UniProt O95136, whole entry, species assumed: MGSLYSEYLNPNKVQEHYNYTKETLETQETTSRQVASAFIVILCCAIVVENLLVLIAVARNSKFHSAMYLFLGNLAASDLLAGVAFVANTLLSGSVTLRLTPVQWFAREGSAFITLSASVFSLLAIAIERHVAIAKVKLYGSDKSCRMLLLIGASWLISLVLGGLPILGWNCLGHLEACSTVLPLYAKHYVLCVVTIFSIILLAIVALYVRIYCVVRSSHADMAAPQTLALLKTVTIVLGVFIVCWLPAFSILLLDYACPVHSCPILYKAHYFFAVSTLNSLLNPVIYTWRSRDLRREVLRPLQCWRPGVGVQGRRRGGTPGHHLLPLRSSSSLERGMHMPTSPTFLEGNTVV
UniProt Q99500, whole entry, species assumed: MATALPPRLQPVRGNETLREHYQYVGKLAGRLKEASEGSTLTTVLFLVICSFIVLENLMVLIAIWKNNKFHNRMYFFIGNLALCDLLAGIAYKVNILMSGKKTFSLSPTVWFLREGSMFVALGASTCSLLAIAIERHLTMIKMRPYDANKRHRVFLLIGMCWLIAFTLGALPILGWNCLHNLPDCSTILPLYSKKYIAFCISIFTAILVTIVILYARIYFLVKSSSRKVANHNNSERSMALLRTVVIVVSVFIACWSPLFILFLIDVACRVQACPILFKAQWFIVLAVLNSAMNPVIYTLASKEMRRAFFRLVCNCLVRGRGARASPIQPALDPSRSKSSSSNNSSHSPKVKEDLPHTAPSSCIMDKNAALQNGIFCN

What was measured:
S1PR1 = target: T1, S1PR1 (Homo sapiens, UniProt P21453); test: Nanobit analysis of S1PR1 activation (Gαi and β-arrestin coupling); format: cell-based; conditions: 4-log range of ligand, 0.32 nM-1 μM S1P
T1 construct: expressed in transfected cells; host or cells: HEK293A
From the text: (§1) The Nano-bit system, which employs split luciferase interactions of GPCRs with betaarrestin or specific Ga/bg complexes in response to GPCR activation (Inoue et al, 2019; Hisano et al, 2019) was used to characterize ApoA1-ApoM nanoparticles containing S1P. Briefly, HEK293A cells maintained in DMEM (GIBCO) supplemented with 10% FCS and Pen-Strep, were dispersed into 6 well plates and allowed to adhere overnight. For functional studies, cells were transfected with appropriate combinations of reporter plasmids. S1PR1-Small bit luciferase and Beta-arrestin-large bit luciferase fusion proteins or Gαi-small bit luciferase combined with Gβ1 and Gγ1-Large bit luciferase were employed as described previously (Hisano et al, 2019). After 24 hrs, cells were harvested, resuspended with the luciferase substrate Coelenterazine (Caymen Chem; 50 μM), dispersed into white opaque-bottom 96-well plates (Greiner) and maintained at RT for 2 hours to quench background. S1P containing samples were added by multi-channel pipetting and the plate was immediately analyzed for fluorescence at 470 nm for 30 minutes in a SpectraMax L 96-well plate reader (Molecular Devices). Data was integrated as described (Hisano et al, 2019).

S1PR2 = target: T2, S1PR2 (Homo sapiens, UniProt O95136); test: Nanobit analysis of S1PR2 coupling to β-arrestin; format: cell-based; conditions: compared to ApoM-Fc-S1P or ApoA1-ApoM-S1P
T2 construct: split-luciferase (NanoBiT) fragment on the receptor; expressed in transfected cells; host or cells: HEK293A
From the text: as §1

S1PR3 = target: T3, S1PR3 (Homo sapiens, UniProt Q99500); test: Nanobit analysis of S1PR3 coupling to β-arrestin; format: cell-based; conditions: compared to ApoM-Fc-S1P or ApoA1-ApoM-S1P
T3 construct: split-luciferase (NanoBiT) fragment on the receptor; expressed in transfected cells; host or cells: HEK293A
From the text: as §1

NF-κB = test: TNFα-induced NF-κB luciferase reporter assay in HMEC; format: cell-based, human; conditions: 25-400 μg/ml
Procedure: TNFα-dependent NF-κB signaling was determined by using an NFκB-Luciferase based reporter assay system (pGL4.32[luc2P/NF-κB-RE/Hygro]; Promega). A stable NFκB reporter cell line in human microvascular endothelial cells (HMEC-1; ATCC) was created. HMEC were maintained in 10% FCS/Pen-Strep MCDB media supplemented with 2 mM L-Glutamine (Sigma), EGF (2 ng/ml; R&D systems) and Hydrocortisone (1 ng/ml; Sigma). Using TNFα (10 ng/ml; R&D Systems), both dose and temporal analyses were performed to establish optimal induction of the Luciferase response (Data not shown). The 5×10^5 reporter cells were distributed to 12 well plates and allowed to adhere for 24 hours. Media was replaced with MCDB media supplemented with 1% FCS, L-Glutamine. Cells were pre-treated with either media, ApoA1 (Purified Human ApoA1; Sigma), ApoA1-ApoM, ApoA1-ApoM-S1P, ApoM-Fc-S1P, or Albumin-S1P for 10 minutes and 2 ng/ml of TNFα. Samples were extracted using cell lysis buffers (Promega), luciferin substrate was added and the plates were measured for […] at 470 nm for 8-15 minutes in a SpectraMax L 96-well plate reader (Molecular Devices).

S1PR1-dependent activation of Gai (S1PR1): similar | S1PR1 b-arrestin receptor-coupling (S1PR1): similar | maximum stimulation of β-arrestin activation via S1PR2 (S1PR2): Greater maximum stimulation | maximum stimulation of β-arrestin activation via S1PR3 (S1PR3): Greater maximum stimulation | inhibition of TNFα induced NF-κB activity (qualitative) (NF-κB): did not inhibit
Substance: Albumin-S1P: S1P loaded onto fatty acid free Albumin
